Reference: ChEMBL document CHEMBL3046441, “Importance of physicochemical properties for the design of new pesticides” (J Agric Food Chem, 2011)

Experiment: Hydrophobicity, log P of the compound in octanol-water by shaking-flask method
Type: physicochemical

Q: For `COP(=S)(OC)Oc1ccc(SC)c(C)c1` [FENTHION], which logP is on record?
A: 4.09
